biological target: MMP-9 (92 kDa, gelatinase B; type IV collagenase) (Homo sapiens, UniProt P14780); assay: Assay of type IV collagenase inhibitors: activated MMP-9 with type IV collagenase activity kit substrate, fluorescent intensity; type: biochemical; settings: activated MMP-9, type IV collagenase activity kit substrate, fluorescent intensity; concentration at which percent inhibition reaches 50%

By UniProt entry, the sequences of proteins in these tests, tags left out. Residues count along the entry.
UniProt P14780, 107-707 limits assumed: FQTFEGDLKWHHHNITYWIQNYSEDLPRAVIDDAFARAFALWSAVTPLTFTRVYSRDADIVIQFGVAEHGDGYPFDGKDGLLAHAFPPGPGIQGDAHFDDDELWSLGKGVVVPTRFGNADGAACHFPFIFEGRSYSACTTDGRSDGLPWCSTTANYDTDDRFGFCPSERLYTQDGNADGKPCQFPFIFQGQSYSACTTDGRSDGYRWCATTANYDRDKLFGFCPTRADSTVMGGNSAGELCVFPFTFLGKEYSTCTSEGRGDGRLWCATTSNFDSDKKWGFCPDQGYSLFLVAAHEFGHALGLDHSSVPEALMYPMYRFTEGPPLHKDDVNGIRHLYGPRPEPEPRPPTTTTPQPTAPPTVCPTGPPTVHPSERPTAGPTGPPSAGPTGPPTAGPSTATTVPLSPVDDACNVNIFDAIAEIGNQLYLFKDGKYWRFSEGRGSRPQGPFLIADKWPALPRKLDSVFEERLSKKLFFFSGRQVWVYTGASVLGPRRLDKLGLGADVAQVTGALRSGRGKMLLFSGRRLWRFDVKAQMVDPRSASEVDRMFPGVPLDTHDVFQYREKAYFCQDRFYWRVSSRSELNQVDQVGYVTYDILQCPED

| SMILES | IC50 |
| --- | --- |
| Cc1ccc(-c2ccc(S(=O)(=O)N[C@@H](C(=O)O)C(C)C)cc2)cc1 | 249 nM |
| O=C(O)C(CCc1ccccc1)NS(=O)(=O)c1ccc(-c2ccccc2)cc1 (racemic) | 2000 nM |
| O=C(NO)[C@H](NS(=O)(=O)c1ccc(-c2ccccc2)cc1)c1ccccc1 | 73 nM |
| O=C(O)C(Cc1cscn1)NS(=O)(=O)c1ccc(-c2ccccc2)cc1 (racemic) | 2600 nM |
| O=C(O)C(Cc1ccc(F)cc1)NS(=O)(=O)c1ccc(-c2ccccc2)cc1 (racemic) | 3700 nM |
| O=C(NO)[C@@H](Cc1ccccc1)NS(=O)(=O)c1ccc(F)cc1 | 1300 nM |
| O=C(NO)C(CCc1ccccc1)NS(=O)(=O)c1ccc(-c2ccccc2)cc1 (racemic) | 2000 nM |
| Cc1ccc(-c2ccc(S(=O)(=O)N[C@H](Cc3ccccc3)C(=O)O)cc2)cc1 | 329 nM |
| O=C(NO)C(Cc1nc2ccccc2s1)NS(=O)(=O)c1ccc(-c2ccccc2)cc1 (racemic) | 4.1 nM |
| O=C(NO)[C@@H](Cc1ccccc1)NS(=O)(=O)c1ccc(Br)cc1 | 410 nM |
| O=C(O)[C@@H](Cc1ccc(-c2ccccc2)cc1)NS(=O)(=O)c1ccc(-c2ccccc2)cc1 | 680 nM |
| O=C(NO)[C@@H](CO)NS(=O)(=O)c1ccc(-c2ccccc2)cc1 | 213 nM |
| O=C(NO)[C@@H](CC1CCCCC1)NS(=O)(=O)c1ccc(-c2ccccc2)cc1 | 27 nM |
| Cn1cc(CC(NS(=O)(=O)c2ccc(Oc3ccccc3)cc2)C(=O)NO)c2ccccc21 (racemic) | 3.7 nM |
| O=C(NO)[C@@H](Cc1ccc(-c2ccccc2)cc1)NS(=O)(=O)c1ccc(-c2ccccc2)cc1 | 34 nM |
| CC(C)[C@@H](NS(=O)(=O)c1ccc(Oc2ccccc2)cc1)C(=O)O | 1050 nM |
| O=C(NO)C(Cc1ccc(F)cc1)NS(=O)(=O)c1ccc(-c2ccccc2)cc1 (racemic) | 110 nM |
| O=C(NO)[C@@H](COCc1ccccc1)NS(=O)(=O)c1ccc(-c2ccccc2)cc1 | 12.9 nM |
| O=C(O)[C@@H](CO)NS(=O)(=O)c1ccc(-c2ccccc2)cc1 | 1160 nM |
| O=C(O)[C@@H](Cc1ccccc1)NS(=O)(=O)c1ccc(-c2ccc(F)cc2)cc1 | 1800 nM |
| O=C(NO)C(Cc1ccc([N+](=O)[O-])cc1)NS(=O)(=O)c1ccc(-c2ccccc2)cc1 (racemic) | 380 nM |
| O=C(NO)C(Cc1ccncc1)NS(=O)(=O)c1ccc(-c2ccccc2)cc1 (racemic) | 134 nM |
| O=C(NO)[C@@H](CC(F)(F)F)NS(=O)(=O)c1ccc(-c2ccccc2)cc1 | 28 nM |

Results, then the molecule that gave them:

| IC50 | SMILES |
| --- | --- |
| 41 nM | O=C(NO)C(Cc1cccc2ccccc12)NS(=O)(=O)c1ccc(-c2ccccc2)cc1 (racemic) |
| 4650 nM | O=C(O)C(Cc1nc2ccccc2s1)NS(=O)(=O)c1ccc(-c2ccccc2)cc1 (racemic) |
| 3.5 nM | Cc1ccc2[nH]cc(CC(NS(=O)(=O)c3ccc(Oc4ccccc4)cc3)C(=O)NO)c2c1 (racemic) |
| 205 nM | Cc1ccc2[nH]cc(CC(NS(=O)(=O)c3ccc(-c4ccccc4)cc3)C(=O)O)c2c1 (racemic) |
| 12.3 nM | CSc1ccc(-c2ccc(S(=O)(=O)N[C@H](Cc3c[nH]c4ccccc34)C(=O)O)cc2)cc1 |
| 2600 nM | O=C(O)C(Cc1nc2ccccc2[nH]1)NS(=O)(=O)c1ccc(-c2ccccc2)cc1 (racemic) |
| 1900 nM | Cn1cc(CC(NS(=O)(=O)c2ccc(Oc3ccccc3)cc2)C(=O)O)c2ccccc21 (racemic) |
| 76 nM | Cc1ccc(-c2ccc(S(=O)(=O)N[C@H](Cc3c[nH]c4ccccc34)C(=O)O)cc2)cc1 |
| 2250 nM | COc1ccc2[nH]cc(CC(NS(=O)(=O)c3ccc(-c4ccccc4)cc3)C(=O)O)c2c1 (racemic) |
| 247 nM | O=C(NO)[C@@H](Cc1c[nH]c2ccccc12)NS(=O)(=O)c1ccc(Oc2ccccc2)cc1 |
| 28.2 nM | O=C(NO)C(Cc1c[nH]c2ccc(F)cc12)NS(=O)(=O)c1ccc(-c2ccccc2)cc1 (racemic) |
| 520 nM | Cn1cc(CC(NS(=O)(=O)c2ccc(-c3ccccc3)cc2)C(=O)O)c2ccccc21 (racemic) |
| 810 nM | O=C(O)C(Cc1cccc2ccccc12)NS(=O)(=O)c1ccc(-c2ccccc2)cc1 (racemic) |
| 10.8 nM | Cn1cc(CC(NS(=O)(=O)c2ccc(-c3ccccc3)cc2)C(=O)NO)c2ccccc21 (racemic) |

same assay, conditions: activated MMP-9, type IV collagenase activity kit substrate, fluorescent intensity; concentration at which percent inhibition reaches 50%; tested form: hydrate

| SMILES | IC50 |
| --- | --- |
| COc1ccc(-c2ccc(S(=O)(=O)N[C@H](Cc3c[nH]c4ccccc34)C(=O)O)cc2)cc1 | 18 nM |
| O=C(O)[C@@H](Cc1ccccc1)NS(=O)(=O)c1ccc(-c2ccc(-c3ccccc3)cc2)cc1 | 110 nM |

same assay, conditions: inhibition of type IV collagenase (MMP-9), concentration at which percent inhibition reaches 50%

| SMILES | IC50 |
| --- | --- |
| CN(C)c1ccc(N=Nc2ccc(S(=O)(=O)N[C@H](Cc3ccccc3)C(=O)NO)cc2)cc1 | 5.3 nM |
| CC(C)[C@@H](NS(=O)(=O)c1ccc(C#Cc2ccc(N)cc2)cc1)C(=O)O | 325 nM |
| COc1ccc(-c2ccc(S(=O)(=O)N[C@@H](C(=O)O)C(C)C)s2)cc1 | 96.5 nM |
| CC(C)(C)c1ccc(-c2ccc(S(=O)(=O)N[C@H](Cc3ccccc3)C(=O)O)cc2)cc1 | 1910 nM |
| CC(C)[C@@H](NS(=O)(=O)c1ccc(C#Cc2ccc([N+](=O)[O-])cc2)cc1)C(=O)O | 133 nM |
| COc1ccc(C#Cc2ccc(S(=O)(=O)N[C@@H](C(=O)O)C(C)C)s2)cc1 | 21.8 nM |
| COc1ccc(C#Cc2ccc(S(=O)(=O)N[C@@H](C(=O)O)C(C)C)cc2)cc1 | 2980 nM |
| CC(=O)n1cc(CC(NS(=O)(=O)c2ccc(Oc3ccccc3)cc2)C(=O)NO)c2ccccc21 (racemic) | 6.1 nM |
| O=C(Nc1ccccc1)Nc1ccc(S(=O)(=O)N[C@H](Cc2ccccc2)C(=O)NO)cc1 | 940 nM |

More lines, now with the values ahead:

| IC50 | SMILES |
| --- | --- |
| 24.3 nM | COc1ccc(C#Cc2ccc(S(=O)(=O)N[C@H](Cc3ccccc3)C(=O)O)s2)cc1 |
| 3280 nM | COc1ccc(C#Cc2ccc(S(=O)(=O)N[C@H](Cc3c[nH]c4ccccc34)C(=O)O)cc2[N+](=O)[O-])cc1 |
| 123 nM | CC(=O)Oc1ccc(C#Cc2ccc(S(=O)(=O)N[C@H](Cc3c[nH]c4ccccc34)C(=O)O)cc2)cc1 |
| 1110 nM | O=C(O)[C@@H](Cc1c[nH]c2ccccc12)NS(=O)(=O)c1ccc(C#Cc2ccccc2)s1 |
| 224 nM | O=C(O)[C@@H](Cc1c[nH]c2ccccc12)NS(=O)(=O)c1ccc(C#Cc2ccc(F)cc2)s1 |
| 1200 nM | O=C(O)[C@@H](Cc1ccccc1)NS(=O)(=O)c1ccc(N=Nc2ccccc2)cc1 |
| 929 nM | Cc1ccc(C#Cc2ccc(S(=O)(=O)N[C@H](Cc3ccccc3)C(=O)O)cc2)cc1 |
| 12.6 nM | CSc1ccc(-c2ccc(S(=O)(=O)N[C@H](Cc3c[nH]c4ccccc34)C(=O)O)s2)cc1 |
| 10.9 nM | COc1ccc(C#Cc2ccc(S(=O)(=O)N[C@H](Cc3c[nH]c4ccccc34)C(=O)O)cc2)cc1 |
| 231 nM | O=C(O)[C@@H](Cc1c[nH]c2ccccc12)NS(=O)(=O)c1ccc(Oc2ccc(O)cc2)cc1 |
| 40 nM | COc1ccc(-c2ccc(S(=O)(=O)N[C@H](Cc3c[nH]c4ccccc34)C(=O)O)s2)cc1 |
| 98.1 nM | CN(C)c1ccc(C#Cc2ccc(S(=O)(=O)N[C@H](Cc3c[nH]c4ccccc34)C(=O)O)cc2)cc1 |
| 14.4 nM | Cc1ccc(C#Cc2ccc(S(=O)(=O)N[C@@H](C(=O)O)C(C)C)s2)cc1 |
| 1530 nM | O=C(O)[C@@H](Cc1c[nH]c2ccccc12)NS(=O)(=O)c1ccc(C#Cc2ccccc2[N+](=O)[O-])s1 |
| 73.6 nM | COc1ccc(C#Cc2ccc(S(=O)(=O)N[C@H](Cc3c[nH]c4ccccc34)C(=O)O)s2)cc1 |
| 88 nM | O=C(O)[C@@H](Cc1c[nH]c2ccccc12)NS(=O)(=O)c1ccc(C#Cc2ccc(F)cc2)cc1 |
| 873 nM | O=C(O)[C@@H](Cc1c[nH]c2ccccc12)NS(=O)(=O)c1ccc(-c2ccc(F)cc2)s1 |
| 244 nM | Cc1ccc(-c2ccc(S(=O)(=O)N[C@H](Cc3ccccc3)C(=O)O)s2)cc1 |
| 23.4 nM | Cc1ccc(C#Cc2ccc(S(=O)(=O)N[C@H](Cc3c[nH]c4ccccc34)C(=O)O)s2)cc1 |
| 75.9 nM | O=C(O)[C@@H](Cc1c[nH]c2ccccc12)NS(=O)(=O)c1ccc(C#Cc2ccc(O)cc2)cc1 |
| 23 nM | Cc1ccc(C#Cc2ccc(S(=O)(=O)N[C@H](Cc3c[nH]c4ccccc34)C(=O)O)cc2)cc1 [1a-2-10] |
| 161 nM | O=C(O)[C@@H](Cc1ccccc1)NS(=O)(=O)c1ccc(C#Cc2ccc(F)cc2)cc1 |
| 156 nM | CC(C)[C@@H](NS(=O)(=O)c1ccc(C#Cc2ccc(F)cc2)s1)C(=O)O |
